# Data as given in patent US4469707A, “Method for treatment of senile dementia” (Astra Lakemedel Aktiebolag, priority 1983, dated 1984).
# Tested on: 5-HT uptake
# Assay: Prevention of H 75/12-induced brain 5-HT depletion (inhibition of 5-HT uptake in vivo, by brain region)
# Design: species or system rats
# Procedure: The regional specificity of the inhibition of the 5-HT was determined by studying whether GEA 654, alaproclate (2-(4-chloro-phenyl)-1,1-dimethylethyl-2-aminopropanoate), given i.p. to rats 30 min before H 75/12 (α-ethyl-4-methyl-m-tyramine) could prevent the brain 5-HT depletion induced by H 75/12, 50 mg/kg i.p., 2 h before sacrifice.
# [1] = rats, 3 mg/kg i.p., 30 min before H 75/12 50 mg/kg i.p.
# [2] = rats, 10 mg/kg i.p., 30 min before H 75/12 50 mg/kg i.p.
# [3] = rats, 1,5 mg/kg i.p., 30 min before H 75/12 50 mg/kg i.p.
smiles,measurement,setting,value
"CC(N)C(=O)OC(C)(C)Cc1ccc(Cl)cc1 (stereo not drawn) [Alaproclate, 2-(4-chloro-phenyl)-1,1-dimethylethyl-2-aminopropanoate]",Regional specificity in blocking the 5-HT uptake in vivo,"in words, brain regions compared, 3 mg/kg dose level for alaproclate",most potent in the hippocampus followed by the hypothalamus
same,% Inhibition of 5-HT uptake in Hippocampus,[1],40%
same,% Inhibition of 5-HT uptake in Hypothalamus,[1],25%
same,% Inhibition of 5-HT uptake in Spinal cord,[1],17%
same,% Inhibition of 5-HT uptake in Striatum,[1],6%
same,% Inhibition of 5-HT uptake in Cortex,[2],13%
same,% Inhibition of 5-HT uptake in Hippocampus,[2],74%
same,% Inhibition of 5-HT uptake in Hypothalamus,[2],55%
same,% Inhibition of 5-HT uptake in Spinal cord,[2],33%
same,% Inhibition of 5-HT uptake in Striatum,[2],46%
same,% Inhibition of 5-HT uptake in Hippocampus,[3],10%
same,% Inhibition of 5-HT uptake in Hypothalamus,[3],10%
